Molecular target: Mu-type opioid receptor (Homo sapiens, UniProt P35372)
Assay: Displacement of [3H]-naloxone from human mu opioid receptor expressed in HEK293 cell membranes

Chains of the proteins cited; added tags and fusions are not shown.
UniProt P35372, whole entry: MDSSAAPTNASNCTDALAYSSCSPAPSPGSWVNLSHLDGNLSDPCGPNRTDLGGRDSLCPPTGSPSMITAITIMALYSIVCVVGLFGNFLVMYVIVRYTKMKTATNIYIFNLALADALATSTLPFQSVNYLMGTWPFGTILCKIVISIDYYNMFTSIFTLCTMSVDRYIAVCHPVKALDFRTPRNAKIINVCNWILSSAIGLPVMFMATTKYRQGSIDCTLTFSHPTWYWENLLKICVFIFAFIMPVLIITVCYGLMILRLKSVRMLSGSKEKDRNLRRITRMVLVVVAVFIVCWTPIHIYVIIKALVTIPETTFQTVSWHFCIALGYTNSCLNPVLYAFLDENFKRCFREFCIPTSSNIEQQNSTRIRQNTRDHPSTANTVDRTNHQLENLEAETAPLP

Compound: O=C1NCN(c2ccccc2)C12CCN([C@H]1Cc3cccc4cccc1c34)CC2
- Ki: 5.9 nM

Source: ChEMBL document CHEMBL4428025 (J Med Chem, 2016)
